Tests used:
[1] = target: HCK (Homo sapiens (Human), UniProt P08631); test: Invitrogen Select Screening kinase assay; assay type: biochemical; conditions: in vitro, read-out: HCK IC50 (nM) Inv
[2] = target: TAK1 (Homo sapiens (Human), UniProt O43318); test: Invitrogen Select Screening kinase assay; assay type: biochemical; conditions: in vitro

Sequences of proteins named here, by UniProt entry; tags and fusion partners are left off. A change or cut given only in a name is not applied to a line headed by its entry.
UniProt P08631: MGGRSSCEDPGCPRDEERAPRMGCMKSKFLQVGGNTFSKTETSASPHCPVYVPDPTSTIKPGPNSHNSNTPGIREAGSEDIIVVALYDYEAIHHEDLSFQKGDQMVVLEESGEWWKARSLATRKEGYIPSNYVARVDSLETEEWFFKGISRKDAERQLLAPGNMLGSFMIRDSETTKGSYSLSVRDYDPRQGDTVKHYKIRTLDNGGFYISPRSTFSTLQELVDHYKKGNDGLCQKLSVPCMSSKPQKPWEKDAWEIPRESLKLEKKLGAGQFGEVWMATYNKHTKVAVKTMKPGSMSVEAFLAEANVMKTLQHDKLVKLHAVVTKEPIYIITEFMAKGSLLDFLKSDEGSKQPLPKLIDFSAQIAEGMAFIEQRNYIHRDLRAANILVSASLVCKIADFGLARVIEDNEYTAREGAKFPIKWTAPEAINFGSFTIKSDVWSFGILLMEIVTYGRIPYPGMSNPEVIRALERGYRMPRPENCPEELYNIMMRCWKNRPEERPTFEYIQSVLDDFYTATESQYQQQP
UniProt O43318: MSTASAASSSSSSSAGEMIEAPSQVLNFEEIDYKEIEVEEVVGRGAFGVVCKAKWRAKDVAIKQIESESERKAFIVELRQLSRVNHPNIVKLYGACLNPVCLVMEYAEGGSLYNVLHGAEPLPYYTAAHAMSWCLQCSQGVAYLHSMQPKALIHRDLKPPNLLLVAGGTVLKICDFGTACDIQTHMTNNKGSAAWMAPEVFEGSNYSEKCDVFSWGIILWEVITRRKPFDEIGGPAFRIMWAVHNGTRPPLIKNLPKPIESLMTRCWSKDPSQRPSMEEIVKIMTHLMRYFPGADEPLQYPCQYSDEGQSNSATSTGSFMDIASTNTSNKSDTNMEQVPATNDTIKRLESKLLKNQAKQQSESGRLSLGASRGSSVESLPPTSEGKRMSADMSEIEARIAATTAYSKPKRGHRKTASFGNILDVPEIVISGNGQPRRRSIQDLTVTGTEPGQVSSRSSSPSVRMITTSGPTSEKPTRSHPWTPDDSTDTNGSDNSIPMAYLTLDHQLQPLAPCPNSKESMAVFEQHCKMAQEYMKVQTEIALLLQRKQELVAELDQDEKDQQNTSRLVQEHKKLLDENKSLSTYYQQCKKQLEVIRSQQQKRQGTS

Row | SMILES | IC50 [1] | IC50 [2]
1 | CCN1CCN(Cc2ccc(C(=O)Nc3ccc(C)c(NC(=O)c4cncc(-c5cccs5)c4)c3)cc2C(F)(F)F)CC1 [I-1, N-(5-(4-((4-ethylpiperazin-1-yl)methyl)-3-(trifluoromethyl)benzamido)-2-methylphenyl)-5-(thiophen-2-yl)nicotinamide] | 7.4 nM | 8210 nM
2 | Cc1ccc(C(=O)Nc2cccc(C(C)(C)C#N)c2)cc1NC(=O)c1cncc(-c2cccs2)c1 [I-6, N-(5-((3-(2-cyanopropan-2-yl)phenyl)carbamoyl)-2-methylphenyl)-5-(thiophen-2-yl)nicotinamide] | 29.9 nM | > 3330 nM
